Assay results published in publication PMC3034772 (Pharmaceutical research, 2010).
Like-named read-outs stand apart in the source and are kept apart here.

Key:
[1] = PAMPA; for Pm^7.4: pH 7.4
[2] = in vivo; cited from earlier work
[3] = mouse, in vivo; cited from earlier work

Molecule	Pm^7.4 [1]	PS [2]	log PABL [1]	log Po [1]	log Ppara [1]	pKa (physchem)	PS [3]
CNCC[C@@H](Oc1ccccc1C)c1ccccc1 [Atomoxetine]	79	407 10^−4 mLg^−1s^−1					
Cc1nc2n(c(=O)c1CCN1CCC(c3noc4cc(F)ccc34)CC1)CCCC2 [Risperidone]	28		−3.25	−4.00	−6.25	7.81	
[D-Pen^2,5]-Enkephalin [DPDPE]							1 10^−4 mLg^−1s^−1
